Source: patent US9315520B2, “2-amino-6-methyl-4,4a,5,6-tetrahydropyrano[3,4-d][1,3]thiazin-8a(8H)-yl-1,3-thiazol-4-yl amides” (Pfizer Inc., priority 2014, dated 2016)

By UniProt entry, the sequences of proteins in these tests, tags left out. Residues count along the entry.
UniProt P56817, 46-457: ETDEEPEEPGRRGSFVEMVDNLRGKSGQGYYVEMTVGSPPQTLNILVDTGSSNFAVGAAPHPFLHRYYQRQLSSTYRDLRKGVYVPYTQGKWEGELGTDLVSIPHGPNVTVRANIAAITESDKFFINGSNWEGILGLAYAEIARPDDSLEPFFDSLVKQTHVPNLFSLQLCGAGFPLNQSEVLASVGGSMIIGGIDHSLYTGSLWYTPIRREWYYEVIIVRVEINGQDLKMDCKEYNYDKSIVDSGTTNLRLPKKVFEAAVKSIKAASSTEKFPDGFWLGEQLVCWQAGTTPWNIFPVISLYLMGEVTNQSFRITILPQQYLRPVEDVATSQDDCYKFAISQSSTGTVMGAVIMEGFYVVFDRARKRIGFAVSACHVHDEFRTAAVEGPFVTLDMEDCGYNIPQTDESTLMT

Target: BACE1 (Homo sapiens (Human), UniProt P56817)
Test: BACE1 Cell-Free Assay (fluorescence polarization)
Assay type: biochemical
From the text: Beta-secretase (BACE) is one of the enzymes involved in the generation of the amyloid beta peptide found in the amyloid plaques of Alzheimer's Disease patients. This assay measures the inhibition of the beta-secretase enzyme as it cleaves a non-native peptide.
A synthetic APP substrate that can be cleaved by beta-secretase having N-terminal biotin and made fluorescent by the covalent attachment of Oregon Green at the Cys residue is used to assay beta-secretase activity in the presence or absence of the inhibitory compounds. The substrate is Biotin-[…]^EVEFR-C[Oregon Green]KK-OH. The BACE1 enzyme is affinity purified material from conditioned media of CHO-K1 cells that have been transfected with a soluble BACE construct (BACE1deltaTM96His). Compounds are incubated in a ½ log dose response curve from a top concentration of 100 μM with BACE1 enzyme and the biotinylated fluorescent peptide in 384-well black plates (Thermo Scientific #4318). […] After a 10 minute incubation at room temperature, plates are read on a PerkinElmer EnVision for fluorescence polarization (Ex485 nm/Em530 nm). The activity of the beta-secretase enzyme is detected by changes in the fluorescence polarization that occur when the substrate is cleaved by the enzyme.

IC50 (Table 4, read-out: BACE1 Cell Free IC50)	IC50 (geometric mean of 2-4 determinations unless otherwise indicated (b: ≧5; c: single determination), read-out: BACE1 Cell-free Assay IC50)	Structure (SMILES)
0.019 µM	–	C[C@H]1C[C@H]2CSC(N)=N[C@@]2(c2cc(NC(=O)c3ccc(C#N)cn3)cs2)CO1 [Comparator 5, reference compound]
–	0.082 µM	CC#CCn1ccc(C(=O)Nc2csc([C@]34CO[C@@H](C)C[C@H]3CSC(N)=N4)n2)n1 [Example 92, N-{2-[(4aR,6S,8aR)-2-amino-6-methyl-4,4a,5,6-tetrahydropyrano[3,4-d][1,3]thiazin-8a(8H)-yl]-1,3-thiazol-4-yl}-1-(but-2-yn-1-yl)-1H-pyrazole-3-carboxamide]

Read-outs that look alike come from different tables or passages of the source.
